# From PubChem BioAssay AID652106 (National Center for Advancing Translational Sciences (NCATS), 2013)
# Several values for one entry are separate records, joined by “and”; a condition that tells them apart may be missing. Equal values may be shown once. Only a part is listed here, and it is no random draw. Activity calls are given as the source filed them. Calls come from the whole dose curve; as a rule, active = well fitted activation curve with a large enough effect; inconclusive = small, poorly fitted or top-dose-only effect; inactive = no such curve, though single readings can be large or run the other way.
# Test: qHTS of alpha-syn Inhibitors; note: % of control where 0% means no effect; nearly all actives have a fitted effect of over 65% in size
# Settings: Yeast expressing alpha-synuclein, BacTiter-Glo, 24 h; at 46.1 µM (top of the series)
# From the text: The goal of this project is to identify new chemical probes capable of reversing the toxicity associated with the Parkinson disease-related protein, alpha-synuclein. Compounds will be selected on their ability to restore growth in yeast cells expressing toxic levels of alpha-synuclein. These compounds will provide a complementary approach to deciphering the tangled mechanisms of toxicity and protection that we have uncovered through genome-wide genetic screens and are beginning to uncover in a large-scale proteomics analysis with mass spectroscopy. To this end, a miniaturized assay was developed to be screened against the Molecular Libraries Small Molecule Repository (MLSMR) to discover alpha-synuclein inhibitors. Please note that in the set-up this yeast-based assay compounds that inhibit as alpha-syn, have a read-out as activators. NIH Chemical Genomics Center [NCGC] NIH Molecular Libraries Probe Centers Network [MLPCN] MLPCN Grant: NS060957 Assay Submitter (PI): Susan Lindquist, Whitehead Institute/MIT
# Dispense 2.5 microL yeast galactose medium per 1536-well plate, pin compound, dispense 2.5 microL alpha-synuclein expressing yeast in galactose medium at OD600=0.02 (pregrown in raffinose medium to mid-log phase) per well, incubate for 24 hr at 30 deg C, and cell growth will be measured using 5 microL of Bactiter/Glo reagent to entire plate and read using Luminescence Protocol in ViewLux.
row,SMILES,growth rescue (activation)
1,CS(=O)(=O)c1cc([N+](=O)[O-])c2no[n+]([O-])c2c1,inactive: 6.11%
2,O=P(Nc1nccs1)(c1ccccc1)c1nc2ccccc2s1 (centres undefined),inactive: -79.6%
3,O=P(Nc1nccs1)(Oc1ccccc1)Oc1ccccc1,inactive: -0.359%
4,CCOP1(=S)c2c(C)nn(CCC#N)c2N=C(c2ccccc2F)N1C (centres undefined),inactive: 4.36%
5,O=C(O)COc1ccc([As](=O)(O)O)cc1[N+](=O)[O-],inactive: -5.99%
6,Nc1ccccc1[As](=O)(O)c1ccccc1,inactive: -0.286%
7,NC(=O)Nc1ccc([As](=O)(O)O)cc1,inactive: -6.28%
8,CN(C(=O)Cc1ccc(Cl)c(Cl)c1)[C@H]1CC[C@@]2(CCCO2)C[C@@H]1N1CCCC1,inactive: 0.0229%
9,O=[N+]([O-])c1ccc2c(c1)nnn2O,inactive: -34.8%
10,CN(C(=O)Cc1ccccc1)[C@@H]1CC[C@]2(CCCO2)C[C@H]1N1CCCC1,inactive: -2.35% and inactive: 1.47%
11,CCOP1(=S)c2c(C)nn(CCC#N)c2N=C(c2ccc(F)cc2)N1C (centres undefined),inactive: -6.55%
12,N#CCCN(C(=O)COC(=O)C(O)(c1ccccc1)c1ccccc1)c1ccc(F)cc1,inactive: 0.686%
13,CS(=O)(=O)c1ccc(Cl)c(NC(=O)COC(=O)C(O)(c2ccccc2)c2ccccc2)c1,inactive: 8.95%
14,COc1cc(C(=O)NCC2(N3CCOCC3)CCCCC2)cc(Cl)c1OC(C)C,inactive: -5.77%
15,O=[As](O)(O)c1cccnc1,inactive: 6.79%
16,CN(C(=O)Cc1ccc(Cl)c(Cl)c1)[C@@H]1CC[C@]2(CCCO2)C[C@H]1N1CCCC1,inactive: 5.56%
17,O=C(OC1CN2CCC1CC2)c1ccc(Cl)cc1 (centres undefined),inactive: 3.73%
18,O=[As](O)(c1cccc(O)c1)c1cccc(O)c1,inactive: 1.58%
19,Cc1cccc(OCC(=O)OC2CN3CCC2CC3)c1 (centres undefined),inactive: 6.73%
20,CCCOP(=S)(Nc1nc(N)cc(=O)[nH]1)OCCC,inactive: -0.346%
21,Nc1cccc2c([As](=O)(O)O)cccc12,inactive: -4.17%
22,Cc1ccc(NCCc2c([N+](=O)[O-])cc([N+](=O)[O-])cc2[N+](=O)[O-])cc1,inactive: 4.03%
23,CCOP(=O)(Nc1cccc2ccccc12)OCC,inactive: 10.7%
24,COc1cc(C2NCCC3(OCCO3)C2(C)C)cc(OC)c1OC (centres undefined),inactive: 0.977%
25,CN(CCCl)Cc1cc(Cl)c(NC2=NCCN2)c(Cl)c1,inactive: -0.18% and inactive: 0.475%

row,SMILES,growth rescue (activation)
1,CCOP(=O)(Nc1ccc(C)cn1)OCC,inactive: -3.29%
2,CCOP(=O)(NC(=NC(C)c1ccccc1)NC(C)c1ccccc1)OCC (centres undefined),inactive: 4.78%
3,CCC1=CC2Cc3nc4ccc(Cl)cc4c(N)c3C(C1)C2 (centres undefined),inactive: 0.117%
4,O=P1(Nc2ccccn2)COc2ccccc2OC1,inactive: 5.28%
5,CC(C)(C)C(=O)NC(Sc1ncccn1)C(Cl)(Cl)Cl (centres undefined),inactive: 10.1%
6,O=P1(N(CCCl)CCCl)NCCC(C(F)(F)F)O1 (centres undefined),inactive: 1.41%
7,COc1ccccc1CNC(=O)COC(=O)C(O)(c1ccccc1)c1ccccc1,inactive: -7.07%
8,CC1(CBr)Cn2c(nc3ccccc3c2=O)S1 (centres undefined),inactive: -0.388%
9,CN(C(=O)Cc1ccc(Cl)c(Cl)c1)[C@@H]1CCCC[C@H]1N1CCCC1,inactive: 0.586%
10,CC(C)/C=N\N=C(\N)N[N+](=O)[O-],inactive: -5.12%
11,COc1cc([N+](=O)[O-])ccc1[N+](=O)[O-],inactive: 5.92%
12,Cc1ccc(C(=O)OC2CN3CCC2CC3)cc1 (centres undefined),inactive: 2.41%
13,CC1CCC(C(C)C)C(OP(=O)(Nc2ccccn2)c2ccccc2)C1 (centres undefined),inactive: -0.781%
14,Cc1nn(-c2ccccc2)c2c1P(=O)(N1CCOCC1)N(C)C(c1ccccc1)=N2 (centres undefined),inactive: 2.01%
15,CCCC1OP(=O)(Nc2ccccc2)OCC1CC (centres undefined),inactive: -7.78%
16,O=C(/C=C/c1ccccc1)OC1CN2CCC1CC2 (centres undefined),inactive: -8.23%
17,CN(C)C1(CNC(=O)c2ccc(S(C)(=O)=O)cc2)CCCCC1,inactive: -1.42%
18,O=P1(Nc2ncccn2)COc2ccccc2OC1,inactive: -0.923%
19,Cc1ccc(S(=O)(=O)N(CCCN)CCCc2c(C)nc(N)[nH]c2=O)cc1,inactive: 0.616%
20,NS(=O)(=O)c1cccc(NC(=O)COC(=O)C(O)(c2ccccc2)c2ccccc2)c1,inactive: -10.8%
21,O=P1(Nc2ccc(Br)cn2)COc2ccccc2OC1,inactive: 9.41%
22,O=[As](O)(c1cccs1)c1cccs1,inactive: -11.1%
23,Cc1ccc(OCC(=O)OC2CN3CCC2CC3)cc1 (centres undefined),inactive: -2.64%
24,Nc1cccc([As](=O)(O)c2ccccc2)c1,inactive: 3.16%
25,CC1CCNP(=O)(N(CCCl)CCCl)O1 (centres undefined),inactive: -8.23%

row,SMILES,growth rescue (activation)
1,O=C(O)C(O)c1ccc(N(CCCl)CCCl)cc1 (centres undefined),inactive: 2.29%
2,CCOC(=O)Nc1ccc([As](=O)(O)O)c(O)c1,inactive: -8.96%
3,Cc1cc(SC(NC(=O)c2ccccc2)C(Cl)(Cl)Cl)nc(C(C)C)n1 (centres undefined),inactive: 1.03%
4,CCCCOc1ccc(C(=O)NCC2(N3CCCCC3)CCCCC2)cc1OC,inactive: 0.812%
5,COP(=O)(OC)N1CC1c1ccccc1 (centres undefined),inactive: 0.211%
6,CCOC(=O)Nc1cccc([As](=O)(O)O)c1,inactive: -2.47%
7,O=[N+]([O-])c1ccc(Nc2ccc(Oc3ccc([N+](=O)[O-])cc3[N+](=O)[O-])cc2)c([N+](=O)[O-])c1,inactive: -6.1%
8,Cc1cc(SC(NC=O)C(Cl)(Cl)Cl)ncn1 (centres undefined),inactive: 0.28%
9,O=P(Nc1ccccn1)(c1cccc2ccccc12)c1cccc2ccccc12,inactive: 1.5%
10,COC(=O)C1(C)COP(=O)(N2CCCC2)OC1 (centres undefined),inactive: -4.08%
11,COP1(=S)c2c(C)nn(CCC#N)c2N=C(c2ccc(F)cc2)N1C (centres undefined),inactive: 4.24%
12,O=C(Nc1ccncc1[N+](=O)[O-])c1ccc([N+](=O)[O-])cc1[N+](=O)[O-],inactive: 0.903%
13,O=C(COc1ccccc1)OC1CN2CCC1CC2 (centres undefined),inactive: -1.14%
14,O=C(O)C(=O)c1ccc(N(CCCl)CCCl)cc1,inactive: 0.644%
15,CCOC(=O)c1ccc(NC(=O)C(C)(CCl)SC)cc1 (centres undefined),inactive: -2.57%
16,CSc1ccc(Nc2c([N+](=O)[O-])cc([N+](=O)[O-])cc2[N+](=O)[O-])cc1,inactive: -6.9%
17,O=C(OC1CN2CCC1CC2)c1cccc([N+](=O)[O-])c1 (centres undefined),inactive: 0.68%
18,CCOP(=O)(Nc1cccc2cccnc12)OCC,inactive: -1.03%
19,CCC(C)N(CC(C)C)C(=S)SC(NC(C)=O)C(Cl)(Cl)Cl (centres undefined),inactive: 7.21%
20,Cc1cc(=O)[nH]c(N[N+](=O)[O-])n1,inactive: 3.55%
21,O=C(OC1CN2CCC1CC2)C12CC3CC(CC(C3)C1)C2 (centres undefined),inactive: -16.9%
22,Cc1c2c(nc3ccccc13)SC(C(Cl)Cl)C2 (centres undefined),inactive: -1.43%
23,COc1cc(I)ccc1[As](=O)(O)O,inactive: -4.41%
24,COc1ccc2nc(NP(=O)(c3ccccc3)c3ccccc3)sc2c1,inactive: 5.13%
25,O=P1(N(CCCl)CCCl)OCCCN1CCCl (centres undefined),inactive: -1.16%

row,SMILES,growth rescue (activation)
1,O=P1(N(CCCl)CCCl)Nc2ccccc2N1,inactive: -12.9%
2,COc1ccc(N/C(=N/P(=O)(N2CCOCC2)N2CCOCC2)N2CCOCC2)cc1,inactive: -0.692%
3,O=[N+]([O-])c1cc(Oc2ccc([N+](=O)[O-])cc2C(F)(F)F)cc([N+](=O)[O-])c1,inactive: 5.18%
4,COc1cc(C(=O)NCC2(N3CCOCC3)CCCCC2)ccc1OCC(C)C,inactive: -1.06%
5,O=[N+]([O-])c1ccc(-c2cc([N+](=O)[O-])c(O)c([N+](=O)[O-])c2)cc1,inactive: -65.7%
6,C[As](=O)(O)c1cccc(C(=O)O)c1,inactive: -9.73%
7,O=[As](O)(c1ccc(O)cc1)c1ccccc1O,inactive: 0.934%
8,Cc1ccc2nc3c(c(C)c2c1)CC(C(Cl)Cl)S3 (centres undefined),inactive: -5.53%
9,Cc1ccc(OP(=O)(Nc2ccc([N+](=O)[O-])cn2)Oc2ccc(C)cc2)cc1,inactive: -4.72%
10,[N-]=[N+]=NC1CCCCC1NC(=O)c1cc([N+](=O)[O-])cc([N+](=O)[O-])c1 (centres undefined),inactive: -5.35%
11,CC(C)c1ccc(OP(=O)(Nc2ccccn2)Oc2ccccc2F)cc1 (centres undefined),inactive: -0.574%
12,COC(=O)C1(C)COP(=O)(N2CCCCCC2)OC1 (centres undefined),inactive: -7.46%
13,O=Cc1ccc(NCCCl)cc1,inactive: 4.87%
14,ClCCSc1nnc(-c2cccnc2)o1,inactive: 0.151%
15,O=[N+]([O-])c1cc([N+](=O)[O-])c(-c2ccn[nH]2)s1,inactive: -8.19%
16,O=C(OC1CN2CCC1CC2)c1cccc2[nH]cnc12 (centres undefined),inactive: 0.388%
17,CCN(CC)C(=S)SC(NC=O)C(Cl)(Cl)Cl (centres undefined),inactive: 3.44%
18,CC(C)NC(=O)NP(=O)(Oc1ccccc1)Oc1ccccc1,inactive: -2.99%
19,CCCC1OP(N)(=O)OCC1CC (centres undefined),inactive: 0.924%
20,CC(=O)Nc1ccc([As](=O)(O)O)cc1,inactive: 2.83%
21,CN(C)P(=O)(N(C)C)n1c(Nc2ccccc2)nnc1-c1ccccc1,inactive: 7.84%
22,O=P(Nc1nc2ccc(Cl)cc2s1)(c1ccccc1)c1ccccc1,inactive: 11%
23,CN(C(=O)Cc1ccc(Cl)c(Cl)c1)[C@H]1CCCC[C@@H]1N1CCCC1,inactive: 2.67% and inactive: 0.414% and inactive: -0.458%
24,Cc1ccc(NP(=O)(Oc2ccccc2F)Oc2ccccc2F)nc1,inactive: -9.12%
